{"source": "paper PMC2217457", "about": "(The Journal of General Physiology, 2004)", "key": {"mouse AChR αL65V": {"tested_on": "mouse AChR αL65V", "conditions": "L2 (β2/α2) mutation/wild-type, choline"}, "mouse AChR αL40A": {"tested_on": "mouse AChR αL40A", "conditions": "L2 (β2/α2) mutation/wild-type, choline"}, "mouse AChR αL110V": {"tested_on": "mouse AChR αL110V", "conditions": "L2 (β2/α2) mutation/wild-type, choline"}, "mouse AChR αR20L": {"tested_on": "mouse AChR αR20L", "conditions": "L2 (β2/α2) mutation/wild-type, choline"}, "mouse AChR αL146M": {"tested_on": "mouse AChR αL146M", "conditions": "L2 (β2/α2) mutation/wild-type, choline"}, "mouse AChR αL146F": {"tested_on": "mouse AChR αL146F", "conditions": "L2 (β2/α2) mutation/wild-type, choline"}, "mouse AChR αD138E": {"tested_on": "mouse AChR αD138E", "conditions": "L2 (β2/α2) mutation/wild-type, choline"}, "mouse AChR αN47K": {"tested_on": "mouse AChR αN47K", "conditions": "choline"}, "mouse AChR αA122L": {"tested_on": "mouse AChR αA122L", "conditions": "L2 (β2/α2) mutation/wild-type, choline"}, "mouse AChR αV29L": {"tested_on": "mouse AChR αV29L", "conditions": "L2 (β2/α2) mutation/wild-type, choline"}, "mouse AChR αV46I": {"tested_on": "mouse AChR αV46I", "conditions": "L2 (β2/α2) mutation/wild-type, choline"}, "mouse AChR αM144T": {"tested_on": "mouse AChR αM144T", "conditions": "L2 (β2/α2) mutation/wild-type, choline"}, "mouse AChR αN47A": {"tested_on": "mouse AChR αN47A", "conditions": "choline"}, "mouse AChR αL56A": {"tested_on": "mouse AChR αL56A", "conditions": "L2 (β2/α2) mutation/wild-type, choline"}, "mouse AChR αM144I": {"tested_on": "mouse AChR αM144I", "conditions": "L2 (β2/α2) mutation/wild-type, choline"}, "mouse AChR αQ48A": {"tested_on": "mouse AChR αQ48A", "conditions": "L2 (β2/α2) mutation/wild-type, choline"}, "mouse AChR αR55A": {"tested_on": "mouse AChR αR55A", "conditions": "L2 (β2/α2) mutation/wild-type, choline"}, "mouse AChR αF137M": {"tested_on": "mouse AChR αF137M", "conditions": "L2 (β2/α2) mutation/wild-type, choline"}, "mouse AChR αI116A": {"tested_on": "mouse AChR αI116A", "conditions": "L2 (β2/α2) mutation/wild-type, choline"}, "mouse AChR αS143T": {"tested_on": "mouse AChR αS143T", "conditions": "L2 (β2/α2) mutation/wild-type, choline"}, "mouse AChR αM144L": {"tested_on": "mouse AChR αM144L", "conditions": "L2 (β2/α2) mutation/wild-type, choline"}, "mouse AChR αM144A": {"tested_on": "mouse AChR αM144A", "conditions": "L2 (β2/α2) mutation/wild-type, choline"}, "mouse AChR αS143A": {"tested_on": "mouse AChR αS143A", "conditions": "L2 (β2/α2) mutation/wild-type, choline"}, "mouse AChR αL35A": {"tested_on": "mouse AChR αL35A", "conditions": "L2 (β2/α2) mutation/wild-type, choline"}, "mouse AChR αR55W": {"tested_on": "mouse AChR αR55W", "conditions": "L2 (β2/α2) mutation/wild-type, choline"}, "mouse AChR αN141V": {"tested_on": "mouse AChR αN141V", "conditions": "L2 (β2/α2) mutation/wild-type, choline"}}, "note": "Read-outs that look alike come from different tables or passages of the source."}
{"smiles": "C[N+](C)(C)CCO", "note": "[Choline, choline]", "values": [{"measurement": "L2 ratio", "setting": "mouse AChR αL65V", "value": 1.193}, {"measurement": "L2 ratio", "setting": "mouse AChR αL40A", "value": 3.990}, {"measurement": "L2 ratio", "setting": "mouse AChR αL110V", "value": 0.778}, {"measurement": "L2 ratio", "setting": "mouse AChR αR20L", "value": 3.589}, {"measurement": "L2 ratio", "setting": "mouse AChR αL146M", "value": 1.010}, {"measurement": "L2 ratio", "setting": "mouse AChR αL146F", "value": 0.905}, {"measurement": "L2 ratio", "setting": "mouse AChR αD138E", "value": 3.420}, {"measurement": "L2 ratio", "setting": "mouse AChR αN47K; L2 (β2/α2) mutation/wild-type", "value": 5.333}, {"measurement": "channel opening rate constant, fold faster than the wt", "setting": "mouse AChR αN47K", "value": "~6", "unit": "fold"}, {"measurement": "L2 ratio", "setting": "mouse AChR αA122L", "value": 3.482}, {"measurement": "L2 ratio", "setting": "mouse AChR αV29L", "value": 1.576}, {"measurement": "L2 ratio", "setting": "mouse AChR αV46I", "value": 2.638}, {"measurement": "L2 ratio", "setting": "mouse AChR αM144T", "value": 0.953}, {"measurement": "L2 ratio", "setting": "mouse AChR αN47A; L2 (β2/α2) mutation/wild-type", "value": 13.396}, {"measurement": "channel opening rate constant, fold faster than the wt", "setting": "mouse AChR αN47A", "value": "~9", "unit": "fold"}, {"measurement": "L2 ratio", "setting": "mouse AChR αL56A", "value": 1.670}, {"measurement": "L2 ratio", "setting": "mouse AChR αM144I", "value": 0.686}, {"measurement": "L2 ratio", "setting": "mouse AChR αQ48A", "value": 5.787}, {"measurement": "L2 ratio", "setting": "mouse AChR αQ48A; listed as choline", "value": "~6"}, {"measurement": "L2 ratio", "setting": "mouse AChR αR55A", "value": 1.577}, {"measurement": "L2 ratio", "setting": "mouse AChR αF137M", "value": 4.609}, {"measurement": "L2 ratio", "setting": "mouse AChR αI116A", "value": 1.024}, {"measurement": "L2 ratio", "setting": "mouse AChR αS143T", "value": 1.117}, {"measurement": "L2 ratio", "setting": "mouse AChR αM144L", "value": 6.563}, {"measurement": "α2 Choline (diliganded channel-closing rate constant)", "setting": "mouse AChR αR20A; 0.4 mM choline", "value": "3,122"}, {"measurement": "L2 ratio", "setting": "mouse AChR αR20A; L2 (β2/α2) mutation/wild-type, choline", "value": 1.401}, {"measurement": "L2 ratio", "setting": "mouse AChR αM144A", "value": 0.530}, {"measurement": "L2 ratio", "setting": "mouse AChR αS143A", "value": 0.539}, {"measurement": "L2 ratio", "setting": "mouse AChR αL35A", "value": 1.565}, {"measurement": "L2 ratio", "setting": "mouse AChR αR55W", "value": 0.707}, {"measurement": "L2 ratio", "setting": "mouse AChR αN141V", "value": 3.899}]}
